According to patent US8415507B2 (priority 2010, dated 2013):

Conditions: solution supersaturated with respect to pterostilbene; after three days

## pterostilbene:piperazine [cocrystal 4]
  Outcome of slurrying in water: precipitation of pterostilbene
